The subject of the test is BCRP. Particulars: 11 at 30 μM for 24, 48 and 72 h; NCI-H460/MX20.

Each structure is given as a SMILES string.

As for `COC(=O)c1c(-c2ccc(O)cc2)c(-c2ccc(O)cc2)cn1CC(=O)c1ccc(OC)cc1` [Compound 11, lamellarin O], the “BCRP levels (expression, Western blotting)” value is “not significantly changed”.

These data come from article PMC4113800 (Marine Drugs, 2014).
